Activity calls are given as the source filed them. The calls are words filed in the database; no cut-off is given here.
What was measured:
CP-A = assay: Antiproliferative activity against human CP-A cells assessed as reduction in cell viability at 0.003 to 30 uM measured after 5 days by PrestoBlue reagent based fluorescence analysis; assay type: functional; conditions: dose 0.003-30 µM, time 5.0 day
EPC-2 = assay: Antiproliferative activity against human EPC-2 cells assessed as reduction in cell viability at 0.003 to 30 uM measured after 5 days by PrestoBlue reagent based fluorescence analysis; assay type: functional; conditions: dose 0.003-30 µM, time 5.0 day

Q: What does the source list for `CNc1ncc2c(/C=C/C(=O)N3CCC(OC)CC3)nn(Cc3cccc(C(F)(F)F)c3)c2n1`?
A: Activity (CP-A): Active; Activity (EPC-2): Active
